Assays:
Format in all cases: cell-based, human
[1] = system: CD34+ cells from cord blood; experiment: DL-4 culture of CD34+ cells, T-cell precursor generation (flow cytometry)
Protocol: CD34+ cells from human CB or mobilized peripheral blood samples were cultured in 24-well plates or 6-well plates that had been coated with recombinant human fibronection (RetroNectin®, Clontech/Takara) and DL-4 (5 μg/ml, PX'Therapeutics, Grenoble, France). Coating was performed for 2 h at 37° C., DL-4 coated wells were then blocked with bovine serum albumin 2% (BSA) in phosphate-buffered saline (PBS) for 30 minutes at 37° C. and washed with PBS. […] After 3 days of culture, the cells were half replaced by fresh medium. Cultured cells were analyzed by fluorescence-activated cell sorting (FACS) after 3 and 7 days of culture on DL-4 respectively to exclude CD34-/CD7-myeloid cells from subsequent analyses. Human cells were stained and analyzed using a Gallios analyzer (Beckman Coulter, Krefeld, Germany). Cells from xenogenic recipients were analysed on a MACSQuant® apparatus (Miltenyi Biotech, Bergisch Gladbach, Germany). The data were analyzed using FlowJo software (Treestar, Ashland, Oreg.) after gating on viable, 7AAD-negative cells. Cell subsets were sorted on an ARIA II system. For cell cycle analysis, cells were stained with Hoechst33342 (Life technology) and Ki67-PC5 (BD Bioscience) after fixed with Fixative reagent of PerFix-nc kit (Beckman Coulter) at room temperature for 15 min, and added permeablizing reagent. The data were analyzed using FlowJo software (version 10.2, Treestar, Ashland, Oreg.) after gating on viable, 7AAD-negative cells.

[2] = system: CD34+ cells from mobilized peripheral blood; experiment: as above
Protocol: CD34+ cells from human CB or mobilized peripheral blood samples were cultured in 24-well plates or 6-well plates that had been coated with recombinant human fibronection (RetroNectin®, Clontech/Takara) and DL-4 (5 μg/ml, PX'Therapeutics, Grenoble, France). Coating was performed for 2 h at 37° C., DL-4 coated wells were then blocked with bovine serum albumin 2% (BSA) in phosphate-buffered saline (PBS) for 30 minutes at 37° C. and washed with PBS. Cultures were initiated at a concentration of 2×10^4 cells/well or 1×10^5 cells/well (for 24-well and 6-well plates respectively) in α-MEM medium (Gibco, life Technology), supplemented with NaHCO3 (7.5%) (Gibco, life Technology) and 20% defined fetal calf serum (Hyclone, Thermo Fisher Scientific, Illkirch, France) and the recombinant human cytokines interleukin-7 (IL-7), Flt3-ligand (Flt-3), stem cell factor (SCF) and thrombopoietin (TPO) (all at 100 ng/ml and all purchased from PeproTech Inc, Rocky Hill, N.J.) with or without TNF-α (R&D Systems, US). After 3 days of culture, the cells were half replaced by fresh medium. Cultured cells were analyzed by fluorescence-activated cell sorting (FACS) after 3 and 7 days of culture on DL-4 respectively to exclude CD34-/CD7-myeloid cells from subsequent analyses.
Human cells were stained and analyzed using a Gallios analyzer (Beckman Coulter, Krefeld, Germany). Cells from xenogenic recipients were analysed on a MACSQuant® apparatus (Miltenyi Biotech, Bergisch Gladbach, Germany). The data were analyzed using FlowJo software (Treestar, Ashland, Oreg.) after gating on viable, 7AAD-negative cells. Cell subsets were sorted on an ARIA II system.
For cell cycle analysis, cells were stained with Hoechst33342 (Life technology) and Ki67-PC5 (BD Bioscience) after fixed with Fixative reagent of PerFix-nc kit (Beckman Coulter) at room temperature for 15 min, and added permeablizing reagent. The data were analyzed using FlowJo software (version 10.2, Treestar, Ashland, Oreg.) after gating on viable, 7AAD-negative cells.

[3] = system: cells differentiated from cord blood CD34+ cells; experiment: Apoptosis assay (7AAD / Annexin V); conditions: CB, culture in presence of TNF-alpha
Protocol: (§1) Cells were washed by cold PBS and resuspended in binding buffer at a concentration of 1 million cells/ml. After adding 5 ul Annexin V-PE (BD Bioscience) and 2 ul 7AAD, cells were incubated in the dark at room temperature for 15 min. Subsequently, cells were washed with 500 ul binding buffer and resuspended in 100 ul binding buffer to be analyzed within 1 hour.
(§2) Apoptosis markers (7AAD and Annexin5) were studied.

[4] = system: cells differentiated from mobilized peripheral blood CD34+ cells; experiment: Apoptosis assay (7AAD / Annexin V); conditions: mPB, culture in presence of TNF-alpha
Protocol: as §1, §2

[5] = system: DL-4 T-cell precursors; experiment: Analysis of T cell receptor rearrangement; conditions: after 7 days of culture
Protocol: TCR gene rearrangement analysis was performed in duplicate and on the two independently purified subsets (average is shown). TCR-δ quantification (D δ2-D δ3, D δ2-J δ1, and D δ3-J δ1) was performed with the listed sets of primers and probes. The analysis of TCR rearrangements by multiplex fluorescent PCR was performed by separation of fluorochrome-labeled single stand PCR products in a capillary sequencing polymer and detected via automated laser scanning.

[6] = system: CD34+ cells from CB and mPB; experiment: Cell proliferation assay (CFSE)
Protocol: For cell proliferation assays, CD34+ cells from CB and mPB were labeled using the CellTrace™ CFSE kit (Life Technologies, Carlsbad, Calif.) prior to culture with DL-4 and TNF-alpha (Life Technologies). The cells' staining intensity was measured prior to culture each day from day 3 to day 7. CFSE-positive cell were analyzed on a Gallios cytometer (Beckman Coulter).
After 7 days of culture in presence of TNF-alpha, CD34+ CD7−, CD34+ CD7+ and CD34−CD7+ subsets were sorted, stained with CFSE (Carboxyfluorescein succinimidyl ester) and the dilution of CFSE (surrogate marker of cell proliferation) was followed from day 8 to 10.

[7] = Cord blood, 7 days of culture, flow cytometry
[8] = mPB, 7 days of culture, flow cytometry

Substance: TNF-alpha: soluble TNF-alpha (Tumor Necrosis Factor Alpha, Uniprot P01375, SEQ ID NO: 8), added to the culture medium
- increase of number of CD7+ cells (T-cell progenitors) at day 7 ([1]; CB HSPC, TNF-alpha from day 0 in DL-4 culture): 20 fold
- TNF-alpha concentration at which CD7+ cell numbers increase during culture ([1]; CB cells, dose response, day 3 to day 7, FIG. 6.A): more than 10 ng/ml
- cell cycle analysis, cells in G0 phase ([1]; CB derived CD7+ progenitors, TNF-alpha 20 ng/ml, FIG. 8): more cells were released from G0 phase
- effect on T-cell differentiation (percentage of CD34− CD7+ cells), dose response ([1]; CB, 0.01-10 ng/ml, FIG. 7): concentration-dependent at low concentration
- frequency of myeloid cells (CD14 and CD33) at day 7 ([1]; CB, FIG. 5): not detectable
- differentiation into CD7+ T-cell precursors without DL4 ([1]; CB, day 7, without DL4, FIG. 4): couldn't rescue
- CD5+ CD7+ cells [1, 7]: 0.66
- CD5+ CD7− cells [1, 7]: 0.012
- CD5− CD7+ cells [1, 7]: 95.4
- CD5− CD7− cells [1, 7]: 3.97
- CD34+ CD7+ cells [1, 7]: 0.39
- CD34+ CD7− cells [1, 7]: 0.76
- CD34− CD7+ cells [1, 7]: 95.6
- CD34− CD7− cells [1, 7]: 3.22
- multiplication of total number of cells recovered at day 7 as compared to culture without TNF-alpha ([1]; cord blood CD34+ cells cultured with DL-4, FIG. 1.A, TNF-alpha 100 ng/ml): 10 times
- expression of Bcl11b (intracellular staining), proportion of expressing cells ([1]; cord blood, 7 days of culture, FIG. 3): positive expression of Bcl11b
- multiplication of total number of cells recovered at day 7 as compared to culture without TNF-alpha ([2]; PB CD34+ cells cultured with DL-4, FIG. 1.B, TNF-alpha 100 ng/ml): 10 times
- increase of number of CD7+ cells (T-cell progenitors) at day 7 ([2]; mPB HSPC, TNF-alpha from day 0 in DL-4 culture): 40 fold
- TNF-alpha concentration at which CD7+ cell numbers increase during culture ([2]; mPB cells, dose response, day 3 to day 7, FIG. 6.B): more than 10 ng/ml
- cell cycle analysis, cells in G0 phase ([2]; mPB derived CD7+ progenitors, TNF-alpha 20 ng/ml, FIG. 8): more cells were released from G0 phase
- effect on T-cell differentiation (percentage of CD34− CD7+ cells), dose response ([2]; mPB, 0.01-10 ng/ml, FIG. 7): concentration-dependent at low concentration
- expression of Bcl11b (intracellular staining), proportion of expressing cells ([2]; mPB, 7 days of culture, FIG. 3): positive expression of Bcl11b
- CD5+ CD7+ cells [2, 8]: 3.01
- CD5+ CD7− cells [2, 8]: 0.24
- CD5− CD7+ cells [2, 8]: 87.7
- CD5− CD7− cells [2, 8]: 9.00
- CD34+ CD7+ cells [2, 8]: 0.68
- CD34+ CD7− cells [2, 8]: 2.75
- CD34− CD7+ cells [2, 8]: 90.1
- CD34− CD7− cells [2, 8]: 6.49
- frequency of myeloid cells (CD14 and CD33) at day 7 ([2]; mPB, FIG. 5): not detectable
- differentiation into CD7+ T-cell precursors without DL4 ([2]; mPB, day 7, without DL4, FIG. 4): couldn't rescue
- 7AAD +/− AnnexinV+ apoptotic cells (%) [3]: 0.28%
- 7AAD +/− AnnexinV+ apoptotic cells (%) [4]: 0.96%
- signs of TCR rearrangement [5]: do not exhibit any signs of TCR rearrangement
- proliferation of CD34+ CD7+ T-cell precursors as compared to culture without TNF-alpha ([6]; since day 3 in DL-4 culture): increase the proliferation
- proliferation (CFSE dilution) of sorted CD34+ CD7+ and CD34−CD7+ subsets ([6]; sorted after 7 days of culture, followed day 8 to 10): increased proliferation
